As usually defined, the Ki is the equilibrium dissociation constant of an inhibitor or competing ligand from its target.

The chains behind the UniProt entries cited, without tags or fusion partners. Residues count along the entry.
UniProt P27958, 1027-1657: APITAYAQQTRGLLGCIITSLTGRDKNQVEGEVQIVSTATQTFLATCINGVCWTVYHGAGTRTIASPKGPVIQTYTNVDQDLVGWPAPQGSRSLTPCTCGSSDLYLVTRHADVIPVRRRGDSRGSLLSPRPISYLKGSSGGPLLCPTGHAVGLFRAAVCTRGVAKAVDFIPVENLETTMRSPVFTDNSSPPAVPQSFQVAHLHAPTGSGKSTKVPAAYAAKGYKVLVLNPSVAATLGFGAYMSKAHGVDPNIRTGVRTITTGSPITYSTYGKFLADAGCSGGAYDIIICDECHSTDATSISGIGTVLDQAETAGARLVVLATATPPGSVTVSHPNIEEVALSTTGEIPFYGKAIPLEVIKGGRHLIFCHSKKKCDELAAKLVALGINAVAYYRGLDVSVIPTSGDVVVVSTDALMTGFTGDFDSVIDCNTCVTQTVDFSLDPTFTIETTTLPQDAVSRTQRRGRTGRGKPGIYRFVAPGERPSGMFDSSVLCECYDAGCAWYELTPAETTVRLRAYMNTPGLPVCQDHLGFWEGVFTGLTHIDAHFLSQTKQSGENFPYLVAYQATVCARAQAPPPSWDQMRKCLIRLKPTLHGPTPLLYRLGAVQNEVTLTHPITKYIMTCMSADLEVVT
UniProt P27958, 1658-1711: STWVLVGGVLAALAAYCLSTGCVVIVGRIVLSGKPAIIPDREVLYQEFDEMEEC

We go through 41 molecules from patent US7759499B2, “Compounds as inhibitors of hepatitis C virus NS3 serine protease” (Schering Corporation, priority 2004, dated 2010).

The first assay deals with Recombinant heterodimeric HCV NS3/NS4A protease (strain 1a) (Hepatitis C virus genotype 1a, UniProt P27958). In words: Spectrophotometric assay for HCV protease inhibitory activity. The class given is biochemical. The note with it: Table 1, range.
Regarding `CCCCC(NC(=O)[C@@H]1[C@@H]2[C@H](CN1C(=O)[C@@H](NC(=O)N[C@H](CN(C)S(=O)(=O)N(C)C)C(C)(C)C)C1CCCCC1)C2(C)C)C(=O)C(=O)NCC` (stereo partly drawn) [Compound 10085], the Ki was at most 75 nM.
As for `C=CCNC(=O)C(=O)C(CCC)NC(=O)[C@@H]1[C@@H]2[C@H](CN1C(=O)[C@@H](NC(=O)N[C@H](CN(C)S(=O)(=O)N(C)C1CC1)C(C)(C)C)C(C)(C)C)C2(C)C` (stereo partly drawn) [Compound 10095], the Ki is at most 75 nM.
Same read-out and setting: for `C=CCNC(=O)C(=O)C(CCCC)NC(=O)[C@@H]1[C@@H]2[C@H](CN1C(=O)[C@@H](NC(=O)N[C@H](CN(C)S(=O)(=O)N(C)C(=O)OCc1ccccc1)C(C)(C)C)C(C)(C)C)C2(C)C` (stereo partly drawn) [Compound 10082] the value was at most 75 nM; for `C=CCNC(=O)C(=O)C(CCC(F)(F)F)NC(=O)[C@@H]1[C@@H]2[C@H](CN1C(=O)[C@@H](NC(=O)N[C@H](CN(C)S(=O)(=O)N(C)C)C(C)(C)C)C(C)(C)C)C2(C)C` (stereo partly drawn) [Compound 10033], at most 75 nM.

The same assay, now with this note: Table 2, range.
As for `CN(C[C@@H](NC(=O)N[C@H](C(=O)N1C[C@H]2[C@@H]([C@H]1C(=O)NC(CC1CCC1)C(=O)C(N)=O)C2(C)C)C1Cc2ccccc2C1)C(C)(C)C)S(=O)(=O)c1cccs1` (stereo partly drawn) [Compound 11188], the Ki is at most 75 nM.
Same read-out and setting: for `C=CCNC(=O)C(=O)C(CC1CCC1)NC(=O)[C@@H]1[C@@H]2[C@H](CN1C(=O)[C@@H](NC(=O)N[C@H](CN(C)S(=O)(=O)C(C)(C)C)C(C)(C)C)C(C)(C)C)C2(C)C` (stereo partly drawn) [Compound 11206] the value was 75 to 250 nM; for `C=CCNC(=O)C(=O)C(CCC)NC(=O)[C@@H]1[C@@H]2[C@H](CN1C(=O)[C@@H](NC(=O)N[C@H](CN(C)S(=O)(=O)c1cccs1)C(C)(C)C)C1(C)CCCCC1)C2(C)C` (stereo partly drawn) [Compound 11141], at most 75 nM.
For the molecule `C=CCNC(=O)C(=O)C(CC1CC1)NC(=O)[C@@H]1[C@@H]2[C@H](CN1C(=O)[C@@H](NC(=O)N[C@H](CN(C)S(=O)(=O)C(C)C)C(C)(C)C)C(C)(C)C)C2(C)C` (stereo partly drawn) [Compound 11111], the Ki is at most 75 nM.
For `C#CCCC(NC(=O)[C@@H]1[C@@H]2[C@H](CN1C(=O)[C@@H](NC(=O)N[C@H](CN(C)S(=O)(=O)c1ccccc1)C(C)(C)C)C(C)(C)C)C2(C)C)C(=O)C(=O)NCC=C` (stereo partly drawn) [Compound 11363], the Ki is at most 75 nM.
In the case of `C#CCCC(NC(=O)[C@@H]1[C@@H]2[C@H](CN1C(=O)[C@@H](NC(=O)N[C@H](CN(C)S(=O)(=O)c1ccccc1)C(C)(C)C)C(C)(C)C)C2(C)C)C(=O)C(N)=O` (stereo partly drawn) [Compound 11209], the inhibitory constant (Ki) is at most 75 nM.
On to `C=CCNC(=O)C(=O)C(CCC)NC(=O)[C@@H]1[C@@H]2[C@H](CN1C(=O)[C@@H](NC(=O)N[C@H](CN(C)S(=O)(=O)c1cccs1)C1CCCCC1)C(C)(C)C)C2(C)C` (stereo partly drawn) [Compound 11154], for which the Ki is at most 75 nM.
In the case of `CCCCC(NC(=O)[C@@H]1[C@@H]2[C@H](CN1C(=O)[C@@H](NC(=O)N[C@H](CN(C)S(=O)(=O)c1cccs1)C(C)(C)C)C(C)(C)C)C2(C)C)C(=O)C(=O)NCCC` (stereo partly drawn) [Compound 11260], the Ki is at most 75 nM.
On the same count and under the same terms, next, `C=CCNC(=O)C(=O)C(CCCC)NC(=O)[C@@H]1[C@@H]2[C@H](CN1C(=O)[C@@H](NC(=O)N[C@H](CN(C)S(=O)(=O)c1sc(C)nc1C)C(C)(C)C)C(C)(C)C)C2(C)C` (stereo partly drawn) [Compound 11122]: at most 75 nM; `CN([C@@H]1CCCC[C@@H]1NC(=O)N[C@H](C(=O)N1C[C@H]2[C@@H]([C@H]1C(=O)NC(CC1CCC1)C(=O)C(N)=O)C2(C)C)C(C)(C)C)S(C)(=O)=O` (stereo partly drawn) [Compound 11282]: 75 to 250 nM; `CN(C[C@@H](NC(=O)N[C@H](C(=O)N1C[C@H]2[C@@H]([C@H]1C(=O)NC(CC1CC1)C(=O)C(N)=O)C2(C)C)C1CCCC1)C(C)(C)C)S(=O)(=O)c1cccs1` (stereo partly drawn) [Compound 11230]: at most 75 nM.
The same measure, in the same setting: for `CCCCC(NC(=O)[C@@H]1[C@@H]2[C@H](CN1C(=O)[C@@H](NC(=O)N[C@H](CN(C)S(C)(=O)=O)C(C)(C)C)C1Cc3ccccc3C1)C2(C)C)C(=O)C(=O)NCC(C)C` (stereo partly drawn) [Compound 11280] the value was at most 75 nM.
Regarding `CN(C[C@@H](NC(=O)N[C@H](C(=O)N1C[C@H]2[C@@H]([C@H]1C(=O)NC(CC1CCC1)C(=O)C(N)=O)C2(C)C)C(C)(C)C)C(C)(C)C)S(=O)(=O)C1CC1` (stereo partly drawn) [Compound 11028], the Ki is at most 75 nM.
Take `CCCCNC(=O)C(=O)C(CCCC)NC(=O)[C@@H]1[C@@H]2[C@H](CN1C(=O)[C@@H](NC(=O)N[C@H](CN(C)S(C)(=O)=O)C(C)(C)C)C1Cc3ccccc3C1)C2(C)C` (stereo partly drawn) [Compound 11279]: the Ki was at most 75 nM.
Same read-out and setting: for `C=CCNC(=O)C(=O)C(CC1CCC1)NC(=O)[C@@H]1[C@@H]2[C@H](CN1C(=O)[C@@H](NC(=O)NC[C@@H](N(C)S(=O)(=O)c1ccccc1)C(C)(C)C)C1CCCCC1)C2(C)C` (stereo partly drawn) [Compound 11300] the value was over 250 nM; for `CC(C)(C)[C@H](NC(=O)N[C@H](CN(CC1CC1)S(=O)(=O)c1cccs1)C(C)(C)C)C(=O)N1C[C@H]2[C@@H]([C@H]1C(=O)NC(CC1CCC1)C(=O)C(N)=O)C2(C)C` (stereo partly drawn) [Compound 11245], at most 75 nM; for `C=CCNC(=O)C(=O)C(CC1CC1)NC(=O)[C@@H]1[C@@H]2[C@H](CN1C(=O)[C@@H](NC(=O)N[C@H](CN(C)S(=O)(=O)c1sc(C)nc1C)C(C)(C)C)C(C)(C)C)C2(C)C` (stereo partly drawn) [Compound 11116], at most 75 nM.
On the same count and under the same terms, next, `C=CCNC(=O)C(=O)C(CC1CC1)NC(=O)[C@@H]1[C@@H]2[C@H](CN1C(=O)[C@@H](NC(=O)N[C@H](CN(C)S(=O)(=O)Cc1ccccc1)C(C)(C)C)C(C)(C)C)C2(C)C` (stereo partly drawn) [Compound 11035]: at most 75 nM; `C#CCCC(NC(=O)[C@@H]1[C@@H]2[C@H](CN1C(=O)[C@@H](NC(=O)N[C@H](CN(C)S(=O)(=O)C(C)(C)C)C(C)(C)C)C(C)(C)C)C2(C)C)C(=O)C(=O)NCC=C` (stereo partly drawn) [Compound 11219]: at most 75 nM.
On the same count and under the same terms, next, `C=CCNC(=O)C(=O)C(CC1CC1)NC(=O)[C@@H]1[C@@H]2[C@H](CN1C(=O)[C@@H](NC(=O)N[C@H](CN(C)S(=O)(=O)c1cc(CN(C)C(=O)c3ccccc3)cs1)C(C)(C)C)C(C)(C)C)C2(C)C` (stereo partly drawn) [Compound 11362]: at most 75 nM.
Take `CCCC(NC(=O)[C@@H]1[C@@H]2[C@H](CN1C(=O)[C@@H](NC(=O)N[C@H](CN(C)S(=O)(=O)c1cccs1)[C@@H](C)CC)C(C)(C)C)C2(C)C)C(=O)C(=O)NCCC(F)(F)F` (stereo partly drawn) [Compound 11113]: the Ki fell in the range of 75 to 250 nM.
Take `CCS(=O)(=O)N(C)C[C@@H](NC(=O)N[C@H](C(=O)N1C[C@H]2[C@@H]([C@H]1C(=O)NC(CC1CC1)C(=O)C(N)=O)C2(C)C)C(C)(C)C)C1CCCCC1` (stereo partly drawn) [Compound 11156]: the inhibition constant (Ki) was at most 75 nM.
The same measure, in the same setting: for `CN(C[C@H](CC(C)(C)C)NC(=O)N[C@H](C(=O)N1C[C@H]2[C@@H]([C@H]1C(=O)NC(CC1CC1)C(=O)C(N)=O)C2(C)C)C(C)(C)C)S(=O)(=O)c1ccccc1` (stereo partly drawn) [Compound 11132] the value was 75 to 250 nM; for `C=CCNC(=O)C(=O)C(CC1CC1)NC(=O)[C@@H]1[C@@H]2[C@H](CN1C(=O)[C@@H](NC(=O)N[C@H](CN(C)S(=O)(=O)c1cccs1)C(C)(C)C)C1Cc3ccccc3C1)C2(C)C` (stereo partly drawn) [Compound 11176], at most 75 nM; for `C=CCNC(=O)C(=O)C(CC1CC1)NC(=O)[C@@H]1[C@@H]2[C@H](CN1C(=O)[C@@H](NC(=O)N[C@H](CN(C)S(=O)(=O)C1CC1)C(C)(C)C)C(C)(C)C)C2(C)C` (stereo partly drawn) [Compound 11034], at most 75 nM.
Regarding `C=CCNC(=O)C(=O)C(CCCC)NC(=O)[C@@H]1[C@@H]2[C@H](CN1C(=O)[C@@H](NC(=O)NC[C@@H](N(C)S(=O)(=O)c1ccccc1)C(C)(C)C)C(C)(C)C)C2(C)C` (stereo partly drawn) [Compound 11314], the Ki was over 250 nM.
Regarding `C=CCNC(=O)C(=O)C(CCCC)NC(=O)[C@@H]1[C@@H]2[C@H](CN1C(=O)[C@@H](NC(=O)N[C@H](CN(C)S(=O)(=O)CC)C(C)(C)C)C1Cc3ccccc3C1)C2(C)C` (stereo partly drawn) [Compound 11285], the Ki was at most 75 nM.
On the same count and under the same terms, for `CN(CC1(NC(=O)N[C@H](C(=O)N2C[C@H]3[C@@H]([C@H]2C(=O)NC(CC2CCC2)C(=O)C(N)=O)C3(C)C)C(C)(C)C)CCCCC1)S(C)(=O)=O` (stereo partly drawn) [Compound 11027] the value was at most 75 nM.

Still in this assay, the particulars now being: Table 4, range.
`C#CCCC(NC(=O)[C@@H]1[C@@H]2[C@H](CN1C(=O)[C@@H](NC(=O)N[C@H](CN(C)C(=O)C(F)(F)F)C(C)(C)C)C1Cc3ccccc3C1)C2(C)C)C(=O)C(=O)NCC=C` (stereo partly drawn) [Compound 13029]: the Ki was at most 75 nM.
The same measure, in the same setting: next, `C=CCNC(=O)C(=O)C(CCC)NC(=O)[C@@H]1[C@@H]2[C@H](CN1C(=O)[C@@H](NC(=O)N[C@H](CN(C)C(=O)C1CC1)C(C)(C)C)C(C)(C)C)C2(C)C` (stereo partly drawn) [Compound 13014]: 75 to 250 nM.
Take `CC(C)(C)[C@H](NC(=O)N[C@H](CNC(=O)c1cncnc1)C(C)(C)C)C(=O)N1C[C@H]2[C@@H]([C@H]1C(=O)NC(CC1CC1)C(=O)C(N)=O)C2(C)C` (stereo partly drawn) [Compound 13031]: the Ki is at most 75 nM.
Take `C#CCCC(NC(=O)[C@@H]1[C@@H]2[C@H](CN1C(=O)[C@@H](NC(=O)N[C@H](CN(C)C(=O)C(F)(F)F)C(C)(C)C)C1CCCCC1)C2(C)C)C(=O)C(=O)NCC=C` (stereo partly drawn) [Compound 13028]: the Ki was at most 75 nM.

Staying with this assay, now noted: Table 5, range.
Turning to `CC(C)[C@@H](CNC(=O)N[C@H](C(=O)N1C[C@H]2[C@@H]([C@H]1C(=O)NC(CC1CCC1)C(=O)C(N)=O)C2(C)C)C(C)(C)C)NC(=O)OCc1ccccc1` (stereo partly drawn) [Compound 14016], the inhibition constant (Ki) was in the range of 75 to 250 nM.
The same measure, in the same setting: for `C=CCNC(=O)C(=O)C(CC1CC1)NC(=O)[C@@H]1[C@@H]2[C@H](CN1C(=O)[C@@H](NC(=O)N[C@H](CN(C)C(=O)OC(C)(C)C)C1CCCCC1)C1CCCCC1)C2(C)C` (stereo partly drawn) [Compound 14055] the value was over 250 nM.
With `C=CCNC(=O)C(=O)C(CC1CC1)NC(=O)[C@@H]1[C@@H]2[C@H](CN1C(=O)[C@@H](NC(=O)N[C@H](CN(C)C(=O)OC(C)(C)C)C(C)C)C(C)(C)C)C2(C)C` (stereo partly drawn) [Compound 14034], the Ki was over 250 nM.

The assay is the same for the next values; noted with them: Table 5A, range.
Regarding `C=CCNC(=O)C(=O)C(CCCC)NC(=O)[C@@H]1[C@@H]2[C@H](CN1C(=O)[C@@H](NC(=O)N[C@H](CN(CC)S(=O)(=O)CC)C(C)(C)C)C1Cc3ccccc3C1)C2(C)C` (stereo partly drawn) [Compound 11401], the Ki is at most 75 nM.

The assay is the same for the next values; noted with them: Table 6.
Regarding `C=CCNC(=O)C(=O)C(CCCC)NC(=O)[C@@H]1[C@@H]2[C@H](CN1C(=O)[C@@H](NC(=O)N[C@H](CN(CC)S(=O)(=O)CC)C(C)(C)C)C1Cc3ccccc3C1)C2(C)C` (stereo partly drawn) [Compound 11401], the Ki was found to be 6 nM.
Same read-out and setting: next, `CN(C[C@@H](NC(=O)N[C@H](C(=O)N1C[C@H]2[C@@H]([C@H]1C(=O)NC(CC1CCC1)C(=O)C(N)=O)C2(C)C)C(C)(C)C)C(C)(C)C)S(=O)(=O)c1cccs1` (stereo partly drawn) [drawing 52]: 3.7 nM.
